scFv variants of Ab-14 (heavy chain) against a SARS-CoV-2 spike peptide

Target: peptide PDVDLGDISGINAS, taken from heptad repeat 2 (HR2) of SARS-CoV-2 spike.

Parent: Ab-14, a human scFv built as VH, the linker GGGGSGGGGSGGGGS, VL. Only the CDRs of the heavy chain vary.
VH: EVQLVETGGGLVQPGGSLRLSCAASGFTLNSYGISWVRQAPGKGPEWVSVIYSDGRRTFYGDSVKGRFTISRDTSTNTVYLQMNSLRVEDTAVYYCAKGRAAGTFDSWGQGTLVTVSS
VL: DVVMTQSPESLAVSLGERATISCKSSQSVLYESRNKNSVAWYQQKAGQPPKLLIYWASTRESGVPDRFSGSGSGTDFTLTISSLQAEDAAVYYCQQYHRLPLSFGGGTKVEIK

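The parent was found by panning a naive human phage display library on the peptide. Designed CDR sequences, proposed from the first random library and measured here. Their group label is 14H_GPLM_Gibbs (GPLM: also part of the Gaussian process libraries; Gibbs: Gibbs sampling; a sequence that several methods proposed may carry one label only). Affinity was read by AlphaSeq, a pooled yeast mating assay with surface-displayed partners. Pairs that bind mate more often; barcode pairs of the diploids are counted by sequencing. Scores were corrected for input abundance and mapped to Kd with protein pairs of known affinity run in the same pool. There are six technical replicates.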

Substitutions are numbered in sequence along the VH above, starting at 1 (not Kabat).
The read-out is the apparent dissociation constant on a log10 scale (nM): the lower, the stronger.
Replicates are averaged; those with no signal do not enter the mean.
Where no diploid with the target was found in that replicate, the entry reads "nd": below detection, most likely a poor binder, though not proof of it.

changes	log10 Kd, replicates	mean log10 Kd (nM)	control signals
T28S R100V A101E	nd 0.45 0.29 0.64 0.33 0.15	0.37	0/18
T28S S31E G61I A101N	0.70 0.07 0.07 0.22 0.36 0.07	0.25	1/18 (1.67)
T28S G61V A101E	0.86 0.15 nd nd nd 1.08	0.69	0/18
T28E R100A A101T S107L	0.83 0.06 0.13 0.26 0.63 0.80	0.45	0/18
T28W S31D G61I A101T	nd nd nd 0.55 nd nd	0.55	0/18
T28E R100Q S107T	0.84 0.72 0.39 0.23 0.84 1.03	0.67	0/18
T28N A101Q S107T	0.89 1.04 0.63 0.79 0.76 0.76	0.81	0/18
T28A S31E R100Q A101T	0.31 0.19 0.06 -0.08 -0.28 -0.09	0.02	0/18
T28N G61V A101Q	1.30 1.46 1.81 1.95 1.38 1.60	1.58	0/18
T28D S31E R100Q	0.39 0.23 0.31 0.37 0.18 0.35	0.31	0/18
T28E G61Q R100K S107T	0.71 0.63 0.44 0.32 0.27 0.78	0.53	0/18
T28E S53A R100K A101T	-0.09 -0.05 -0.27 -0.46 -0.42 -0.07	-0.23	2/18 (2.39)
T28Q S63N A101T	2.34 1.59 1.71 1.88 1.46 1.72	1.78	0/18
R56Q G61S A101V	nd 0.16 -0.45 0.10 0.33 0.29	0.09	0/18
T28D S31A A101T	-0.04 0.04 0.61 0.60 0.52 0.50	0.37	0/18
T28E S31E G61K A101T	0.64 0.59 -0.18 -0.52 0.29 -0.07	0.12	0/18
T28E A101N S107T	0.57 0.62 0.50 0.60 1.23 1.32	0.81	0/18
T28Q G61I A101Q	nd nd nd nd nd 1.68	1.68	0/18
T28E A101T S107V	0.41 0.75 0.15 0.41 0.22 1.42	0.56	0/18
R56L G61I A101T	1.17 nd nd nd 2.18 1.30	1.55	0/18
T28E R56K A101T S107A	0.47 0.45 0.25 0.06 0.13 0.16	0.25	0/18
G61S A101E S107T	-0.06 -0.17 0.61 0.13 -0.54 0.28	0.04	0/18
T28D G61I A101Q	0.30 -0.20 0.77 0.67 0.90 0.31	0.46	0/18
N30E G61K R100Q	nd nd nd 1.40 2.14 0.48	1.34	0/18
T28E G61T R100K	0.79 0.48 1.03 0.33 0.50 0.68	0.64	0/18
T28W S31E R100Q A101T	nd 0.43 0.91 0.50 1.06 nd	0.73	0/18
S53A R56K R100Q S107L	0.07 0.22 0.07 -0.57 0.09 0.79	0.11	0/18
T28D G61A A101T T104K	nd nd nd nd nd nd	nd	1/18 (1.52)
T28H A101Q	2.12 1.14 nd 2.51 nd 1.82	1.90	0/18
T28S A101Q S107K	nd 0.44 0.68 -0.37 -0.15 0.99	0.32	0/18
T28E G61T R100K A101T	0.87 0.46 1.13 0.87 1.14 1.70	1.03	1/18 (1.80)
G26H T28N G61A A101Q	1.05 0.42 0.36 0.04 0.45 0.25	0.43	0/18
T28E R100H S107D	1.45 1.29 1.65 0.85 0.92 1.16	1.22	1/18 (1.86)
T28V G61A R100N A101V	0.44 0.22 0.42 -0.38 0.68 1.33	0.45	1/18 (1.58)
T28E A101T S107F	1.67 1.13 nd 1.45 0.82 1.74	1.36	0/18
T28D G61V A101L	nd 0.36 0.16 0.71 1.59 1.47	0.86	0/18
T28S F59A S63D A101T	0.04 0.02 -0.17 -0.14 -0.14 0.09	-0.05	0/18
T28D G61Q R100T	-0.14 0.28 -0.13 -0.17 -0.21 0.30	-0.01	0/18
T28N G61T R100Q A101T	0.88 0.42 0.44 0.79 0.34 0.10	0.50	0/18
N30D A101T S107A	0.47 -0.38 0.45 0.09 0.89 0.75	0.38	0/18
T28E G61A R100K A101Q	0.20 -0.06 -0.34 0.55 0.12 -0.44	0.01	0/18
T28S F59A G61Q	0.59 0.71 0.24 0.44 0.58 1.15	0.62	0/18
T28S S31E G61S R100K A101T	-0.59 -0.52 -0.65 -0.79 -0.61 -0.27	-0.57	0/18

Excerpt, the final 3 entries:

| changes | log10 Kd, replicates | mean log10 Kd (nM) | control signals |
|---|---|---|---|
| T28E G61A R100K A101Q | 0.20 -0.06 -0.34 0.55 0.12 -0.44 | 0.01 | 0/18 |
| T28S F59A G61Q | 0.59 0.71 0.24 0.44 0.58 1.15 | 0.62 | 0/18 |
| T28S S31E G61S R100K A101T | -0.59 -0.52 -0.65 -0.79 -0.61 -0.27 | -0.57 | 0/18 |

Of ten entries with the parent sequence, four were seen in most replicates (averages 0.34 to 2.37), three in one and three in none, so single entries are noisy.
The range of this assay differs from that of the first round, and the authors advise against merging the two.
Empty control strains, which show no peptide, gave a signal in 1% of pairings with all heavy chain designs; the median was 2.08 and 95% of these signals were weaker than 0.84. No background was subtracted. Also given: how often the same scFv was detected with the empty control strains, with their mean in brackets.
The authors averaged sequences with at least three values out of six and counted those with two or fewer as poor binders.

Source: Li et al. 2023 (doi:10.1038/s41467-023-39022-2), MIT Lincoln Laboratory and A-Alpha Bio; data file from the FLAb repository.